# Reference: US20100260830A1, “Liposomal Formulations of Tocopheryl Amides” (priority 2009, published 2010)
# Structures can show the parent of a compound that is named as a salt.
# Tested on: mouse melanoma B16F10 cells
# Experiment: Cytotoxic effect on melanoma cells in vitro
# Method: IC50 values were calculated from MTT activity (Bank, U et al, 1991, Measurement of cellular activity by means of the MTT-test. Allerg Immunol 37:119-123).
smiles,measurement,value
"Cc1c(C)c2c(c(C)c1OC(=O)/C=C\C(=O)O)CC[C@@](C)(CCC[C@H](C)CCC[C@H](C)CCCC(C)C)O2 [αTOM, α-tocopheryl maleate]",cytotoxic potential (order),αTAM>αTOM>αTOS>>αTOH
